System: mouse
Experiment: Mouse tail-flick test (TF), tail-dip into hot water
Conditions: from TF-ED50 and WT-ED50, i.v.; high value signals low brain penetration

**Q.** `CN(C(=O)Cc1cccc2occc12)[C@H]1CC[C@@]2(CCCO2)C[C@@H]1N1CCCC1` was tested. Which “BPI (Brain Penetration Index)” value did it give?
**A.** lower than 5

Reference: US5965701A, “Kappa receptor opioid peptides” (priority 1997, dated 1999)
